Measured values taken from US20140249076A1, “AMYLIN-CALCITONIN CHIMERIC PEPTIDES CONJUGATED TO DURATION ENHANCING MOIETIES” (AMYLIN PHARMACEUTICALS, LLC, priority 2011, published 2014).

B1: Cmpd 173 (Acetyl-[K^18(mPEG40KD)]-Cmpd 2) (peptide)
peptide: CNTATCVLGRLSQELHKLQTYPRTNVGSNTY
modifications: here or on the partner: N-terminal acetyl; mPEG40KD on the side-chain amine of Lys 18 (Formula (I)/Cmpd 1 numbering; residue 17 of this chain); C-terminal amide
B2: Cmpd 174 (Acetyl-[K24(mPEG40KD)]-Cmpd 2) (peptide)
peptide: B1 peptide with K17R, R23K
modifications: here or on the partner: N-terminal acetyl; mPEG40KD on the side-chain amine of Lys 24 (Formula (I)/Cmpd 1 numbering; residue 23 of this chain); C-terminal amide
B3: Cmpd 156 (Acetyl-[K^21(mPEG40KD)]-Cmpd 2) (peptide)
peptide: B1 peptide with K17R, T20K
modifications: N-terminal acetyl; mPEG40KD on the side-chain amine of Lys 21 (Formula (I)/Cmpd 1 numbering; residue 20 of this chain); C-terminal amide
B4: Cmpd 170 (Acetyl-[K^22(mPEG40KD)]-Cmpd 2) (peptide)
peptide: B1 peptide with K17R, Y21K
modifications: here or on the partner: N-terminal acetyl; mPEG40KD on the side-chain amine of Lys 22 (Formula (I)/Cmpd 1 numbering; residue 21 of this chain); C-terminal amide
B5: Cmpd 171 (Acetyl-[K^23(mPEG40KD)]-Cmpd 2) (peptide)
peptide: B1 peptide with K17R, P22K
modifications: here or on the partner: N-terminal acetyl; mPEG40KD on the side-chain amine of Lys 23 (Formula (I)/Cmpd 1 numbering; residue 22 of this chain); C-terminal amide
B6: Cmpd 172 (Acetyl-[K^11(mPEG40KD)]-Cmpd 2) (peptide)
peptide: B1 peptide with R10K, K17R
modifications: here or on the partner: N-terminal acetyl; mPEG40KD on the side-chain amine of Lys 11 (Formula (I)/Cmpd 1 numbering; residue 10 of this chain); C-terminal amide

Key:
[1] = molecular target: rat C1a calcitonin receptor (rat), P32214; assay: cell-based or functional assay
[2] = molecular target: rat C1a calcitonin receptor (rat) (UniProt P32214); assay: cell-based or functional assay
[3] = molecular target: rat C1a calcitonin receptor (rat) (UniProt P32214); assay: displacement of 125I-human calcitonin from C1a-HEK cell membranes
[4] = molecular target: amylin receptor (RNA membranes); assay: displacement of 125I-rat amylin from RNA membranes

| Binder | Calcitonin Function (Adenylate Cyclase), ED50 [1] [nM] | Calcitonin Function (Adenylate Cyclase), ED50 [2] [nM] | IC50 [3] [nM] | IC50 [4] [nM] |
| --- | --- | --- | --- | --- |
| B1 | 19 | – | – | – |
| B2 | 130 | – | – | – |
| B3 | – | 2.2 | 5.2 | – |
| B4 | 1.2 | – | – | 15 |
| B5 | 6.5 | – | – | 11 |
| B6 | > 1000 | – | – | – |

Substitutions are numbered along the chain they refer to.
